We go through one substance from patent publication US20230322928A1, “TREATMENT METHODS USING CTLA-4 AND PD-1 BISPECIFIC ANTIBODIES” (MedImmune, LLC, priority 2022, published 2023).

Sequences of proteins named here, by UniProt entry; tags and fusion partners are left off. Residues count along the entry.
UniProt Q15116, 25-288: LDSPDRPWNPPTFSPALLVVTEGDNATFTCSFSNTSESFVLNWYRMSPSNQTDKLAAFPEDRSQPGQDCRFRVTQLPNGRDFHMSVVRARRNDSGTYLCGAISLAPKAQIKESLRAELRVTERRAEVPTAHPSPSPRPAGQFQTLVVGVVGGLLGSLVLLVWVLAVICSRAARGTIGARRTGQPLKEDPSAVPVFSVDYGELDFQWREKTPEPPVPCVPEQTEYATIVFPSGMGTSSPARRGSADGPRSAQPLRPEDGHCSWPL

One test deals with PD-1 (Homo sapiens, UniProt Q15116). As to the kind of experiment: PD-1 receptor occupancy on CD4 T cells by flow cytometry. To be noted: doses of >225 mg.
The next test has as its system T cell clones. As to the kind of experiment: Expanded T cell clones by T cell receptor sequencing (TCRseq). To be noted: Monotherapy setting.

“MEDI5752: anti-PD-1/CTLA-4 bispecific antibody; light chain SEQ ID NO:1 and heavy chain SEQ ID NO:2 (PD-1), light chain SEQ ID NO:3 and heavy chain SEQ ID NO:4 (CTLA-4)”: the “Sustained peripheral PD-1 receptor occupancy” value with PD-1 is more than 90%. Besides, the T cell expansion entry in the test on T cell clones was “plateauing at 500/750 mg and above”.
